# Tests used:
# Kir3.1/Kir3.4 = target: T1, Kir3.1/Kir3.4 (Homo sapiens, UniProt P48544+P48549); assay: Flow cytometry of fluorescently labeled TertiapinQ binding in unpermeabilized HEK cells stably transfected with Kir3.1/3.4
# T1 construct: expressed in transfected cells; host or cells: HEK293 cells stably expressing Kir3.1/3.4 (GIRK cells)
# T1 sequence (P48549 1-501): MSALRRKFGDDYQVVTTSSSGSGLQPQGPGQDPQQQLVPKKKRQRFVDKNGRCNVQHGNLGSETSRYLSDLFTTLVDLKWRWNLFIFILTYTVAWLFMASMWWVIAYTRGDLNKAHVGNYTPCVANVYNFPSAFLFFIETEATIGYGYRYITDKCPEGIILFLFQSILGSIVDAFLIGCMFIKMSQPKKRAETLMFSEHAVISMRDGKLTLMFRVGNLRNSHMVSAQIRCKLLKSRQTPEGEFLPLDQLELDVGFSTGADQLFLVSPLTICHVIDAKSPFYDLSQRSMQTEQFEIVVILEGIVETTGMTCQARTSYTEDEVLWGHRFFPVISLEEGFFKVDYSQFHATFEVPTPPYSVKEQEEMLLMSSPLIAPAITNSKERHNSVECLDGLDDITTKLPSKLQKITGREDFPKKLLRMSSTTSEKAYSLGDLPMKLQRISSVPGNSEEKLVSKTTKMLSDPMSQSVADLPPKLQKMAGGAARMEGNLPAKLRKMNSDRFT
# T1 sequence (P48544 1-419): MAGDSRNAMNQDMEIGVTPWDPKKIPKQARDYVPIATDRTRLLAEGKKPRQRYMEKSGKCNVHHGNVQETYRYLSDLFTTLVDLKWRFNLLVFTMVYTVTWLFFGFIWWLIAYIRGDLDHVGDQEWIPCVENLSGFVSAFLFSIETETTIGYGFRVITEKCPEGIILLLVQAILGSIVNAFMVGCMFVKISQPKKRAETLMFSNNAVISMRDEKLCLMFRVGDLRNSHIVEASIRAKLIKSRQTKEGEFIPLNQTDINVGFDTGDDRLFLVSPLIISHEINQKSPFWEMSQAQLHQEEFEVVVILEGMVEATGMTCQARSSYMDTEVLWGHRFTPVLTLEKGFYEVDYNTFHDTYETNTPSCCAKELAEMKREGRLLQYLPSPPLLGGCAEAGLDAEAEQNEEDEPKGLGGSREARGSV
# IKACh (Kir3.1/3.4) = target: T2, IKACh (Kir3.1/3.4) (Homo sapiens, UniProt P48544+P48549); assay: Patch clamp of IKACh in Kir3.1/3.4 stably transfected HEK cells (GIRK cells), ramp protocol; type: cell-based
# T2 construct: expressed in transfected cells; host or cells: HEK293 cells stably expressing Kir3.1/3.4 (GIRK cells)
# T2 sequence (P48549 1-501): T1 sequence (P48549 1-501)
# T2 sequence (P48544 1-419): T1 sequence (P48544 1-419)
# IKACh = target: T3, IKACh (Homo sapiens, UniProt P48544+P48549); details: cited from earlier work
# T3 sequence (P48549 1-501): T1 sequence (P48549 1-501)
# T3 sequence (P48544 1-419): T1 sequence (P48544 1-419)
# [1] = system: atrial action potential in a normal heart; details: cited from earlier work
# [2] = system: atrial myocytes from patients with chronic AF; details: cited from earlier work
# cholinergic AF = details: cited from earlier work
compound,measurement,setting,value
CC[C@H](C)[C@@H]1NC(=O)[C@H](CCCNC(=N)N)NC(=O)[C@H](CC(N)=O)NC(=O)[C@@H]2CSSC[C@@H](C(=O)NCC(=O)N[C@@H](CCCCN)C(=O)N[C@@H](CCCCN)C(N)=O)NC(=O)[C@H](CCCCN)NC(=O)[C@H](CCCCN)NC(=O)[C@H](Cc3c[nH]c4ccccc34)NC(=O)[C@H](CSSC[C@H](NC(=O)[C@H](CC(C)C)NC(=O)[C@H](C)N)C(=O)N[C@@H](CC(N)=O)C(=O)N2)NC(=O)[C@H](CCC(N)=O)NC(=O)[C@H](Cc2c[nH]cn2)NC(=O)[C@@H]2CCCN2C(=O)[C@H]([C@@H](C)CC)NC(=O)[C@H]([C@@H](C)CC)NC1=O [TertiapinQ],IC50,Kir3.1/Kir3.4,11 nM
same,Hill coefficient of TertiapinQ fluorescence dose response curve,"Kir3.1/Kir3.4; flow cytometry, HEK Kir3.1/3.4 cells",1.7
same,IC50,IKACh (Kir3.1/3.4),70 nM
same,"Effect on basal, muscarinic stimulation independent, barium sensitive current","IKACh (Kir3.1/3.4); 50 nM, 50 mM extracellular K+",decreased
same,Hill coefficient of IKACh block dose response curve,"IKACh (Kir3.1/3.4); patch clamp, HEK Kir3.1/3.4 cells, n=5",1.2
same,Effect on constitutively active IKACh,IKACh,inhibit
same,Effect on the atrial action potential in a normal heart,[1],only minor effects
same,Action potential duration in atrial myocytes from patients with chronic AF,[2],prolong
same,Effect on cholinergic AF,cholinergic AF,terminate
same,Effect on ventricular electrophysiology,cholinergic AF,without affecting
